According to article PMC5915086 (Oncotarget, 2018):

Tested on: MM cell lines
Format: cell-based, human

## COCCN1CCC(c2cc(CN(C)C(=O)c3cccc(Oc4ccccc4)c3)ccn2)CC1 [TP-064N, N-((2-(1-(2-methoxyethyl)piperidin-4-yl)pyridin-4-yl)methyl)-N-methyl-3-phenoxybenzamide]
  effect on cell growth of MM cells: does not affect; also recorded: did not affect

“Also recorded” adds a separate entry of the source.
